The source of these data is patent publication US20170152258A9, “Substituted Pyridopyrazines as Syk Inhibitors” (HUTCHISON MEDIPHARMA LIMITED, priority 2012, published 2017).

The assay addresses Syk kinase (Homo sapiens, UniProt P43405). The experiment in a line: SYK Enzymatic Assay (Z-LYTE Tyr 2 peptide). Type of assay: biochemical. The settings on record: 8 concentrations 1 μM down to 0.0003 μM. How it is done:
Syk kinase assay are performed in vitro using Kit-Tyr 2 Peptide (Invitrogen, Cat. No. PV3191) and in a 384-well assay plate. […] The 384-well assay plate (Corning, Cat. No. 3575) is mixed and incubated at room temperature for 1 hour. 10 μL of the Development Solution (prepared by diluting Development Reagent A (Cat. No. PV3297) to 1/32 with Development Buffer (Cat. No. PV3127)) is then added to each well, mixed and incubated at room temperature for another 1 hour. The reactions are then stopped by adding 10 μL of the Stop Reagent (Invitrogen, Cat. No. PV3094), and the plate is read with Wallac 1420 VICTOR^3 Multilabel Counter (PerkinElmer™) at 445 nm and 520 nm fluorescence. All compounds are tested at 8 concentrations (1 μM down to 0.0003 μM) using a 1:3 serial dilution scheme.

On to `CN(C)CCC(=O)N1CCO[C@H](COc2nc(-c3ccc(N4CCOCC4)cc3)cc3nccnc23)C1` [Compound 60, (S)-3-(dimethylamino)-1-(2-((7-(4-morpholinophenyl)pyrido[4,3-b]pyrazin-5-yloxy)methyl)morpholino)propan-1-one], for which the midpoint of inhibition, the IC50, lay at 588 nM.
